{
  "source": "ChEMBL document CHEMBL1127389",
  "about": "“Synthesis and biological activity of 2-hydroxy and 2-alkoxy analogs of 1 alpha,25-dihydroxy-19-norvitamin D3” (1994)",
  "key": {"Rattus norvegicus [1]": {"organism": "Rattus norvegicus", "test": "Bone calcium-mobilizing activity with compound concentration 130 (pmol/d/7 days)", "format": "functional, organism-based", "how_it_was_run": "(§1)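 Holtzman weanling rats were fed a vitamin D-deficient diet with 0.47% Ca for 1 week, then a 0.02% Ca diet. They received daily intraperitoneal doses in 0.1 mL of 95:5 propylene glycol/ethanol for 7 days; controls got vehicle. Rats were killed 24 h after the last dose. Serum Ca was measured by automatic calcium titrator; on this diet, the rise in serum Ca is taken as bone Ca mobilization. At least 6 rats/group; Student's t-test.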"}, "Rattus norvegicus [2]": {"organism": "Rattus norvegicus", "test": "Bone calcium-mobilizing activity with compound concentration 65 (pmol/d/7 days)", "format": "functional, organism-based", "how_it_was_run": "as §1"}},
  "note": "Values joined by “and” are separate entries in the source; they are usually repeats but may differ in a detail not shown here. Equal values may be shown once.",
  "data": [
    {"smiles": "C=C1/C(=C/C=C2/CCCC3(C)C2CCC3[C@H](C)CCCC(C)(C)O)C[C@@H](O)C[C@@H]1O", "note": "(some centres not stated)", "values": [
      {"measurement": "Serum Ca2+", "setting": "Rattus norvegicus [1]", "result": "5.6 and 5.7"},
      {"measurement": "Serum Ca2+", "setting": "Rattus norvegicus [2]", "result": 5.2}
    ]}
  ]
}
